Target: PLK4 (Homo sapiens, UniProt O00444)
Experiment: Activity (IC50) of the Table 1 compounds as PLK4 inhibitors
Format: biochemical
Conditions: read-out: Activity; Table 1, IC50 class

The chains behind the UniProt entries cited, without tags or fusion partners.
UniProt O00444, whole entry: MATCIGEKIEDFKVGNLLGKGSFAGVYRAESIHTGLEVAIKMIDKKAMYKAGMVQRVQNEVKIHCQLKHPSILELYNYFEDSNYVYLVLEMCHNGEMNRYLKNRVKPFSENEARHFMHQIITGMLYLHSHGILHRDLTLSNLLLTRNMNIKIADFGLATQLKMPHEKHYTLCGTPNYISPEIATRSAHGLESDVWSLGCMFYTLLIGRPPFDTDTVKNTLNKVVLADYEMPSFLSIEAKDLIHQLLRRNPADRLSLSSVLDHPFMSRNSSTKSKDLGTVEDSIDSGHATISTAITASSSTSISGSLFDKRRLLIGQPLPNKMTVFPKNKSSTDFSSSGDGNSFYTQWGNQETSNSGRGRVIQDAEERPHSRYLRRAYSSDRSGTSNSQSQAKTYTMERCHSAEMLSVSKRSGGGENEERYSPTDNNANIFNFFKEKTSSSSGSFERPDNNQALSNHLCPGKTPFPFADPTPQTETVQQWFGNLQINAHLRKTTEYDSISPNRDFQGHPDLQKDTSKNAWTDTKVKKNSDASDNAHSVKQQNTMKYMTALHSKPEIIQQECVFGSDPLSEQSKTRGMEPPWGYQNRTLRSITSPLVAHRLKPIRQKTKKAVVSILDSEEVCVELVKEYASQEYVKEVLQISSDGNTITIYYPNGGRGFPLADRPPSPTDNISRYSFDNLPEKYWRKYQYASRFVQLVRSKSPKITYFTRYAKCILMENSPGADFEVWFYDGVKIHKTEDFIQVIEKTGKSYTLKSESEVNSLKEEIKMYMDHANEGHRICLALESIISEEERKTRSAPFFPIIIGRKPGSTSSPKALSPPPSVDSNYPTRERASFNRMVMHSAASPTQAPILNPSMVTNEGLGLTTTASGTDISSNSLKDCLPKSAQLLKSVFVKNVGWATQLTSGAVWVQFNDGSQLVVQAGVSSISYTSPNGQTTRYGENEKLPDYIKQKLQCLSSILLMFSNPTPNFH

| SMILES | IC50 [nM] |
| --- | --- |
| COc1c(Nc2cc(C)[nH]n2)nc(Sc2ccc(S(=O)(=O)C(F)c3c(F)c(F)cc(F)c3F)cc2F)nc1N1CCN(CCN(C)C)CC1 (centres unmarked) | < 100 |
| COc1c(Nc2cc(C)[nH]n2)nc(Sc2ccc(S(=O)(=O)C(C)(C)c3c(F)c(F)cc(F)c3F)cc2F)nc1N1CCC(C(=O)N(C)C)CC1 | < 100 |
| COc1c(Nc2cc(C)[nH]n2)nc(Sc2ccc(S(=O)(=O)C(C)(C)c3c(F)c(F)cc(F)c3F)cc2F)nc1N1CCC(O)C1 (centres unmarked) | < 100 |
| COc1c(Nc2cc(C)[nH]n2)nc(Sc2ccc(S(=O)(=O)C(C)(C)c3c(F)c(F)cc(F)c3F)cc2F)nc1N1CCOCC1 | < 100 |
| COc1c(Nc2cc(C)[nH]n2)nc(Sc2ccc(S(=O)(=O)C(C)(C)c3c(F)c(F)cc(F)c3F)cc2F)nc1N1CCC(O)CC1 | < 100 |
| COc1c(Nc2cc(C)[nH]n2)nc(Sc2ccc(S(=O)(=O)C(C)(C)c3c(F)c(F)cc(F)c3F)cc2F)nc1N1CCC(CCN(C)C)CC1 | < 100 |
| COc1c(Nc2cc(C)[nH]n2)nc(Sc2ccc(S(=O)(=O)C(C)(C)c3c(F)c(F)cc(F)c3F)cc2F)nc1N1CCN(CCN(C)C)CC1 | < 100 |
| COc1c(Nc2cc(C)[nH]n2)nc(Sc2ccc(S(=O)(=O)C(F)c3c(F)c(F)cc(F)c3F)cc2F)nc1N1CCOCC1 (centres unmarked) | < 100 |
| COc1c(Nc2cc(C)[nH]n2)nc(Sc2ccc(S(=O)(=O)C(C)(C)c3c(F)c(F)cc(F)c3F)cc2F)nc1N1CCC(C(N)=O)CC1 | < 100 |
| COc1c(Nc2cc(C)[nH]n2)nc(Sc2ccc(S(=O)(=O)C(C)(C)c3c(F)c(F)cc(F)c3F)cc2F)nc1N1CCC(OC(C)=O)C1 (centres unmarked) | < 100 |
| COc1c(Nc2cc(C)[nH]n2)nc(Sc2ccc(S(=O)(=O)C(C)(C)c3c(F)c(F)cc(F)c3F)cc2F)nc1N1CCC(OC)CC1 | < 100 |
